Assay results reported in ChEMBL document CHEMBL1833947, “Synthesis and biological investigation of potential atypical antipsychotics with a tropane core. Part 1” (Eur J Med Chem, 2011).

Key:
Conditions in all cases: Swiss albino, 5 mg/kg
Mus musculus [1] = organism: Mus musculus
Mus musculus [2] = organism: Mus musculus; remark: listed apart in the source
Mus musculus [3] = organism: Mus musculus; remark: listed apart in the source
Mus musculus [4] = organism: Mus musculus; remark: listed apart in the source
Mus musculus [5] = organism: Mus musculus; remark: listed apart in the source
Mus musculus [6] = organism: Mus musculus; remark: listed apart in the source
Mus musculus [7] = organism: Mus musculus; remark: listed apart in the source
Mus musculus [8] = organism: Mus musculus; remark: listed apart in the source
Mus musculus [9] = organism: Mus musculus; remark: listed apart in the source
Mus musculus [10] = organism: Mus musculus; remark: listed apart in the source
Mus musculus [11] = organism: Mus musculus; remark: listed apart in the source

In the case of `Br.CCCN(CCC)C1CCc2cccc(O)c2C1` (stereo unspecified), the deltaT (Mus musculus [1]) is reported as -0.1 °C, the deltaT (Mus musculus [2]) is reported as -0.8 °C and the deltaT (Mus musculus [3]) is reported as -0.5 °C. The deltaT (Mus musculus [4]) was -0.1 °C, the deltaT (Mus musculus [5]) was -0.5 °C and the deltaT (Mus musculus [6]) was -0.1 °C. The deltaT (Mus musculus [7]) was -0.2 °C, the deltaT (Mus musculus [8]) was -1.3 °C and the deltaT (Mus musculus [9]) was -1 °C. The deltaT (Mus musculus [10]) was -1.6 °C and the deltaT (Mus musculus [11]) was -1.6 °C.
